Like-named read-outs stand apart in the source and are kept apart here.
How the values were obtained:
rat TRPV1 [1] = biological target: T1, rat TRPV1 (Rattus norvegicus (Rat), UniProt O35433); experiment: cell-based; conditions: Rat IC50 (μM)
rat TRPV1 [2] = biological target: T1, rat TRPV1; conditions: read-out: Rat IC50

Chains of the proteins cited; added tags and fusions are not shown.
UniProt O35433, whole entry: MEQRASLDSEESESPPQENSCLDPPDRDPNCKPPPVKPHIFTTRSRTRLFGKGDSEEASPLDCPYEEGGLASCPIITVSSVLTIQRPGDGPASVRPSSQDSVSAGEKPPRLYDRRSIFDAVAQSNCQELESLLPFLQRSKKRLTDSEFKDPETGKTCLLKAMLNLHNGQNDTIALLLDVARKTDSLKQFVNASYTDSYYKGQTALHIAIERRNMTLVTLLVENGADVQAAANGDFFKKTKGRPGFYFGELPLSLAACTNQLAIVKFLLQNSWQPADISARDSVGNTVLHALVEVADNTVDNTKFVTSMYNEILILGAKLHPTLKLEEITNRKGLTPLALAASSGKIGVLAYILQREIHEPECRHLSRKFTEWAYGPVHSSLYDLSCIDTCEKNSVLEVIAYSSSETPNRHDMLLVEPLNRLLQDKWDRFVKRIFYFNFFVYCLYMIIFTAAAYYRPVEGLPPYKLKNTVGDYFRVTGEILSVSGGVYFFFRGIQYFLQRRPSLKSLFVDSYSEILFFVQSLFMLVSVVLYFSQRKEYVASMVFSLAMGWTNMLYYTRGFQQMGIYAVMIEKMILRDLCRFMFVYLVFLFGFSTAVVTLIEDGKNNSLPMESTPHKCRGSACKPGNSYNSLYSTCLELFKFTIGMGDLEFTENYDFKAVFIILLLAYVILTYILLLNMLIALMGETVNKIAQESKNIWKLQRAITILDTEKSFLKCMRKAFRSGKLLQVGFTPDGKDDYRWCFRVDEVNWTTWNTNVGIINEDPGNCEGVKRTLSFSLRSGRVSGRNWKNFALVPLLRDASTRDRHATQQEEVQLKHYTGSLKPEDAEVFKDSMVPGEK

Row | SMILES | IC50 (rat TRPV1 [1]) [µM] | IC50 (rat TRPV1 [2]) [nM]
1 | CC(C)(C)c1nc2c(c(Nc3ccc(C(F)(F)F)cc3)n1)CCN(c1ncccc1C(F)(F)F)CC2 | 0.62 | –
2 | CC(C)c1nc2c(c(Nc3ccc(C(=O)O)cc3)n1)CCN(c1ncccc1C(F)(F)F)CC2 | – | > 20000
3 | CSc1nc2c(c(Nc3ccc4c(c3)N(C)CCC4(C)C)n1)CCN(c1ncccc1C(F)(F)F)CC2 | – | 290
4 | CN1CCC(C)(C)c2ccc(Nc3nc(S(C)(=O)=O)nc4c3CCN(c3ncccc3C(F)(F)F)CC4)cc21 | – | > 20000
5 | O=S1(=O)CCN(c2nc3c(c(Nc4ccc(C(F)(F)F)cc4)n2)CCN(c2ncccc2C(F)(F)F)CC3)CC1 | – | > 20000
6 | CC(C)(C)c1ccc(Nc2nc(N3CCCCCC3)nc3c2CCN(c2ncccc2C(F)(F)F)CC3)cc1 | – | 10
7 | CC(Oc1nc2c(c(Nc3ccc(S(=O)(=O)N4CCCC4)cc3)n1)CCN(c1ncccc1C(F)(F)F)CC2)C1CC1 (stereo not shown) | – | 40
8 | Oc1nc2c(c(Nc3ccc(C(F)(F)F)cc3)n1)CCN(c1ncccc1C(F)(F)F)CC2 | – | > 20000
9 | CC(O)CSc1nc2c(c(Nc3ccc(C(F)(F)F)cc3)n1)CCN(c1ncccc1C(F)(F)F)CC2 (stereo not shown) | – | 290
10 | O=S(=O)(c1ccc(Nc2nc(N3CCCCC3)nc3c2CCN(c2ncccc2C(F)(F)F)CC3)cc1)C(F)(F)F | – | 40
11 | CN(C)c1nc2c(c(Nc3ccc(S(N)(=O)=O)cc3)n1)CCN(c1ncccc1C(F)(F)F)CC2 | – | > 20000
12 | CC(C)c1nc2c(c(Nc3ccc(OC(F)(F)F)cc3)n1)CCN(c1ncccc1C(F)(F)F)CC2 [Example 11, [2-Isopropyl-7-(3-trifluoromethyl-pyridin-2-yl)-6,7,8,9-tetrahydro-5H-pyrimido[4,5-d]azepin-4-yl]-(4-trifluoromethoxy-phenyl)-amine] | – | 200
13 | Cc1nc2c(c(Nc3ccc(C(F)(F)F)cn3)n1)CCN(c1ncccc1C(F)(F)F)CC2 [Example 24, [2-Methyl-7-(3-trifluoromethyl-pyridin-2-yl)-6,7,8,9-tetrahydro-5H-pyrimido[4,5-d]azepin-4-yl]-(5-trifluoromethyl-pyridin-2-yl)-amine] | – | 290
14 | COCc1nc2c(c(Nc3ccc(C(F)(F)F)cc3)n1)CCN(c1ncccc1C(F)(F)F)CC2 [Example 76B] | – | 91
15 | CC(C)c1nc2c(c(Nc3ncccn3)n1)CCN(c1ncccc1C(F)(F)F)CC2 [Example 107, [2-Isopropyl-7-(3-trifluoromethyl-pyridin-2-yl)-6,7,8,9-tetrahydro-5H-pyrimido[4,5-d]azepin-4-yl]-pyrimidin-2-yl-amine] | – | > 20000
16 | CC(C)c1nc2c(c(NCc3ccccc3Cl)n1)CCN(c1ncccc1C(F)(F)F)CC2 [Example 121] | – | > 20000
17 | CC(C)c1nc2c(c(NCCc3cccc(Cl)c3)n1)CCN(c1ncccc1C(F)(F)F)CC2 [Example 123, N-[2-(3-Chlorophenyl)ethyl]-2-(1-methylethyl)-7-[3-(trifluoromethyl)pyridin-2-yl]-6,7,8,9-tetrahydro-5H-pyrimido[4,5-d]azepin-4-amine] | – | 990
18 | CN(C)CCN(C)c1nc2c(c(Nc3ccc(C(F)(F)F)cn3)n1)CCN(c1ncccc1C(F)(F)F)CC2 [Example 195, N^2-[2-(Dimethylamino)ethyl]-N^2-methyl-7-[3-(trifluoromethyl)pyridin-2-yl]-N^4-[5-(trifluoromethyl)pyridin-2-yl]-6,7,8,9-tetrahydro-5H-pyrimido[4,5-d]azepine-2,4-diamine] | – | 4320
19 | CN(C)CCN(C)c1nc2c(c(Nc3ccc(C(F)(F)F)c(Cl)c3)n1)CCN(c1ncccc1C(F)(F)F)CC2 [Example 226, N^4-[3-Chloro-4-(trifluoromethyl)phenyl]-N^2-[2-(dimethylamino)ethyl]-N^2-methyl-7-[3-(trifluoromethyl)pyridin-2-yl]-6,7,8,9-tetrahydro-5H-pyrimido[4,5-d]azepine-2,4-diamine] | – | 1730
20 | CN(C)CCN(C)c1nc2c(c(NCc3ccc(Cl)c(Cl)c3)n1)CCN(c1ncccc1C(F)(F)F)CC2 [Example 227] | – | > 20000
21 | FC(F)(F)c1ccc(Nc2nc(N3CCCOCC3)nc3c2CCN(c2ncccc2C(F)(F)F)CC3)cc1 [Example 237] | – | 10
22 | OCc1cnc(N2CCc3nc(N4CCCCC4)nc(Nc4ccc(C(F)(F)F)cc4)c3CC2)c(Cl)c1 [Example 394, {5-Chloro-6-[2-piperidin-1-yl-4-(4-trifluoromethyl-phenylamino)-5,6,8,9-tetrahydro-pyrimido[4,5-d]azepin-7-yl]-pyridin-3-yl}-methanol] | – | 290
